Source: patent publication US20020107302A1, “Monomeric dye inkjet printing ink formulations for invisible marking / identification” (priority 2000, published 2002)
Read-outs that look alike come from different tables or passages of the source.

## Aluminum phthalocyanine chloride [Dye I]
50/50 acetone/water, 600 ppm dye
  Solubility or Dispersibility: Soluble
Acetone, 600 ppm dye
  Solubility or Dispersibility: Insoluble
Ethanol, 600 ppm dye
  Solubility or Dispersibility: Partially Soluble
Ethyl acetate, 600 ppm dye
  Solubility or Dispersibility: Insoluble
Methyl acetate, 600 ppm dye
  Solubility or Dispersibility: Insoluble
Methyl ethyl ketone, 600 ppm dye
  Solubility or Dispersibility: Insoluble
Propylene glycol with 1% (by weight) Surfynol 465 surfactant, 600 ppm dye
  Solubility or Dispersibility: Soluble
Water with 1% ammonium hydroxide, 600 ppm dye
  Solubility or Dispersibility: Insoluble
Water, 0.06% (by weight) or 600 ppm dye
  Solubility or Dispersibility: Insoluble
